The record followed here is EP4186514A1, “PHARMACEUTICAL COMPOSITION FOR PREVENTING OR TREATING CHOLANGITIS OR LIVER DISEASE CAUSED BY CHOLANGITIS COMPRISING ADENOSINE DERIVATIVE” (Future Medicine Co., Ltd., priority 2021, dated 2023).

Chains of the proteins cited; added tags and fusions are not shown.
UniProt P30542, whole entry: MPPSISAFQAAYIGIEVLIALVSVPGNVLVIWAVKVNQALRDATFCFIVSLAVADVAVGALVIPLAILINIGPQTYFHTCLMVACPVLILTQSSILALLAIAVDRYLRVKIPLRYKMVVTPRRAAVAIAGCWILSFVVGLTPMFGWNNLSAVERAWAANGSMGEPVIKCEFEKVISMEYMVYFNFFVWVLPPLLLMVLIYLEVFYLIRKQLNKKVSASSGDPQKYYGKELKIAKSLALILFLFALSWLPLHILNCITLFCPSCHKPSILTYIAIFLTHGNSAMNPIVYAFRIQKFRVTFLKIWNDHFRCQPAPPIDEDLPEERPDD
UniProt P0DMS8, whole entry: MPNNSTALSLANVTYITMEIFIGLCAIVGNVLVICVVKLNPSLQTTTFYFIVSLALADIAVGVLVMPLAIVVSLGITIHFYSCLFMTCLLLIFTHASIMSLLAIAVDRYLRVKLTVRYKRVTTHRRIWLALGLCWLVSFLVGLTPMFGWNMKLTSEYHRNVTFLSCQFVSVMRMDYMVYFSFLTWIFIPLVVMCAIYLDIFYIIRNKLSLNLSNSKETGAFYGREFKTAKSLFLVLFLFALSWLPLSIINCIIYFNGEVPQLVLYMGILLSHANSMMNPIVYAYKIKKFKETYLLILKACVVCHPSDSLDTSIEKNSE

In assay [1] the target is T1, A1 adenosine receptor (Homo sapiens, UniProt P30542).
T1 construct: expressed in transfected cells; host or cells: CHO cells (ATCC No. CCL-61)
Description: Radioligand binding affinity, A1 adenosine receptor ([3H]CCPA, CHO cells). The following applies: nM ± SEM; read-out: Ki(nM) hA1.

For assay [2], the target named is T2, A2A adenosine receptor (Homo sapiens, UniProt P29274).
T2 construct: expressed in transfected cells; host or cells: HEK 293 cell
Description: Radioligand binding affinity, A2A adenosine receptor ([3H]CGS-21680, HEK 293 cell). The following applies: nM ± SEM; read-out: Ki(nM) hA2A.

The target in assay [3] is T3, A3 adenosine receptor (Homo sapiens, UniProt P0DMS8).
T3 construct: expressed in transfected cells; host or cells: CHO cells (ATCC No. CCL-61)
Description: Radioligand binding affinity, A3 adenosine receptor ([125I]AB-MECA, CHO cells). The following applies: nM ± SEM; read-out: Ki(nM) hA3.

One may read the Ki as the equilibrium dissociation constant of an inhibitor or competing ligand from its target. For the compound `O[C@@H]1[C@H](O)CS[C@H]1n1cnc2c(NCc3cccc(I)c3)ncnc21` [Example 14, (2R,3R,4S)-2-(6-(3-iodobenzylamino)-9H-purin-9-yl)tetrahydrothiophen-3,4-diol], the Ki was found to be 530 ± 97 nM in assay [1] and 230 ± 65 nM in assay [2].
For `O[C@@H]1[C@H](O)CS[C@H]1n1cnc2c(NCc3cccc(Cl)c3)nc(Cl)nc21` [Example 2, (2R,3R,4S)-2-(2-chloro-6-(3-chlorobenzylamino)-9H-purin-9-yl)tetrahydrothiophen-3,4-diol], the Ki in assay [3] was 1.66 ± 0.9 nM.
